Legend:
[1] = 5% DMSO : 95% cell medium, >24 h
[2] = tested on: MCF-7 breast adenocarcinoma cells; experiment: MTT cell viability assay, MCF-7; conditions: for cytotoxic activity against MCF-7 (dose-response curves): 24 h and 72 h incubation, 1-100 μM, micromolar range; for cytotoxic activity against MCF-7: 48 h of incubation
Experimental: (§1) The cell culture was made in flasks containing the medium appropriate to cell proliferation and allowing cell adhesion.
For this, the cells were seeded in 200 μl of complete cell medium in 96-well plates.
Cells were left to adhere for 24 h, followed by the addition of various dilutions in medium (200 μl) of the test compound. The test compound was first solubilized in DMSO and then in the cell medium and added to the cells at concentrations 1-100 μM. The final DMSO concentrations in the medium were lower than 0.5%. After 24 h and 72 h incubation, 37° C./5% CO2, the medium was substituted by 200 μl of the MTT solution (0.5 mg/ml in phosphate buffer—PBS). After 3-4 h incubation, the MTT solution was removed and the formazan crystals formed by the viable cells were dissolved in DMSO (200 μl). […] The cytotoxicity of the test compound was quantified calculating the drug concentration that inhibits the growth of 50% of cells (IC50) (GraphPad Prism software). The assessment was carried out with at least two independent experiments, each comprising six replicates per concentration.
(§2) Upon reaching the required confluence, the cells were harvested through addition of a 0.05% trypsin-EDTA solution (Gibco®). […] For this, the cells were seeded in 200 μl of complete cell medium in 96-well plates. […] Cells were left to adhere for 24 h, followed by the addition of various dilutions in medium (200 μl) of the test compound. The test compound was first solubilized in DMSO and then in the cell medium and added to the cells at concentrations 1-100 μM. The final DMSO concentrations in the medium were lower than 0.5%.

[3] = tested on: A2780 ovarian carcinoma cells; experiment: MTT cell viability assay, A2780; conditions: for cytotoxic activity against A2780 (dose-response curves): 72 h incubation, micromolar range; for cytotoxic activity against A2780: 48 h of incubation
Experimental: (§3) The cultures of human breast (MDA-MB-231; ATCC) and ovarian (A2780, ATCC) carcinoma cell lines, were carried out in DMEM (Gibco) medium containing GlutaMax I (MDA-MB-231) or RPMI (A2780) and were completed with 10% FBS and 1% penicillin-streptomycin and kept at 37° C. in a humidified atmosphere containing 5% de CO2.
as §1
(§4) Upon reaching the required confluence, the cells were harvested through addition of a 0.05% trypsin-EDTA solution (Gibco®). […] For this, the cells were seeded in 200 μl of complete cell medium in 96-well plates. Cell density was 2×10^4 viable cells (MDA-MB-231 and A2780) per well.
(§5) Cells were left to adhere for 24 h, followed by the addition of various dilutions in medium (200 μl) of the test compound. The test compound was first solubilized in DMSO and then in the cell medium and added to the cells at concentrations 1-100 μM. The final DMSO concentrations in the medium were lower than 0.5%. After 24 h and 72 h incubation, 37° C./5% CO2, the medium was substituted by 200 μl of the MTT solution (0.5 mg/ml in phosphate buffer—PBS). After 3-4 h incubation, the MTT solution was removed and the formazan crystals formed by the viable cells were dissolved in DMSO (200 μl). Cell viability was assessed measuring the absorbance at 570 nm, using a plate spectrophotometer.
The cytotoxicity of the test compound was quantified calculating the drug concentration that inhibits the growth of 50% of cells (IC50) (GraphPad Prism software). The assessment was carried out with at least two independent experiments, each comprising six replicates per concentration. Dose-response curves of cell viability, after a 72 h incubation, are represented in the graphs of the FIGS. 4a and 4b.
as §2

[4] = tested on: MDA-MB-231 human breast carcinoma cells; experiment: MTT cell viability assay, MDA-MB-231; conditions: 72 h incubation; micromolar range
Experimental: as §3, §1, §4
as §5, with “After 3-4 h incubation, the MTT solution was removed and the formazan crystals formed by the viable cells were dissolved in DMSO (200 μl).” left out, “spectrophotometer. […]” for “spectrophotometer.”

glioma U87 cells = conditions: 48 h of incubation
melanoma A345 cells = conditions: 48 h of incubation

Row | Substance | chemical stability in aqueous medium: relative variation (%) of the absorbance at fixed wavelength over time [1] | cytotoxic activity against MCF-7 (dose-response curves) [2] | cytotoxic activity against A2780 (dose-response curves) [3] | cytotoxic activity against MDA-MB-231 (dose-response curves) [4] | cytotoxic activity against U87 glioma (glioma U87 cells) | cytotoxic activity against A345 melanoma (melanoma A345 cells) | cytotoxic activity against MCF-7 [2] | cytotoxic activity against A2780 [3]
1 | [(1,1′-{1,1′-(1,1′-{2,2′-bipyridine-4,4′-diylbis(methylene)}bis(oxy)bis(1-oxopropane-2,1-diyl))bis(poly(lactic acid)-yl))}bis(oxy)bis(1-oxopropane-2,1-diyl)dianthracene-9-carboxylate)-k^2N,N′](carbonyl)(η^5-cyclopentadienyl)ruthenium(II) hexafluorophosphate [Compound 2] | appropriate chemical stability |  |  |  |  |  |  | 
2 | (2,2′-bipyridine-4,4′-diylbis{methylene}bis(2-{2-(2-hydroxypropanoyloxy)poly(lactic acid)-yl}propanoate)-k^2N,N′)(triphenylphosphane)(η^5-cyclopentadienyl)ruthenium(II) triflate [Compound 5] | appropriate chemical stability | cytotoxic | cytotoxic | cytotoxic |  |  |  | 
3 | [(1,1′-{1,1′-(1,1′-{2,2′-bipyridine-4,4′-diylbis(methylene)}bis(oxy)bis(1-oxopropane-2,1-diyl))bis(poly(lactic acid)-yl))}bis(oxy)bis(1-oxopropane-2,1-diyl)dinaphthalene-2-carboxylate)-k^2N,N′](triphenylphosphane)(η^5-cyclopentadienyl)ruthenium(II) triflate [Compound 4] | appropriate chemical stability |  |  |  | most active | most active | most active | most active
4 | (2,2′-bipyridine-4,4′-diylbis{methylene}bis(2-{2-(2-hydroxypropanoyloxy)poly(lactic acid)-yl}propanoate)-k^2N,N′)(carbonyl)η^5-cyclopentadienyl)ruthenium(II) hexafluorophosphate [Compound 1] | appropriate chemical stability |  |  |  |  |  |  | 
5 | [(1,1′-{1,1′-(1,1′-{2,2′-Bipyridine-4,4′-diylbis(methylene)}bis(oxy)bis(1-oxopropane-2,1-diyl))bis(poly(lactic acid)-yl))}bis(oxy)bis(1-oxopropane-2,1-diyl)di(2S,3S,4S,5R,6R)-3,4,5,6-tetrahydroxyoxane-2-carboxylate)-k^2N,N′](triphenylphosphane)(η^5-cyclopentadienyl)-ruthenium(II) triflate [Compound 6] | appropriate chemical stability | cytotoxic | cytotoxic | cytotoxic |  |  |  | 
6 | [1,1′-{1,1′-(1,1′-{2,2′-bipyridine-4,4′-diylbis(methylene)}bis(oxy)bis(1-oxopropane-2,1-diyl))bis(poly(lactic acid)-yl))}bis(oxy)bis(1-oxopropane-2,1-diyl)dianthracene-9-carboxylate)-k^2N,N′](triphenylphosphane)(η^5-cyclopentadienyl)ruthenium(II))triflate [Compound 3] | appropriate chemical stability |  |  |  | most active | most active | most active | most active

Source: patent US11168179B2, “Macromolecular transition metal complexes for treatment of cancer and process for their preparation” (FACULDADE DE CIÉNCIAS DA UNIVERSIDADE DE LISBOA, priority 2014, dated 2021)
